scFv variants of Ab-14 (heavy chain) against a SARS-CoV-2 spike peptide

All variants were tested on one target, the spike HR2 peptide PDVDLGDISGINAS (SARS-CoV-2).

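Phage display of a naive human antibody library on the peptide gave the parent. Variants in AAYL49 differ from the parent at up to three CDR positions; double and triple changes were sampled at random. Affinity was read by AlphaSeq, a pooled yeast mating assay with surface-displayed partners. Mating (16 h, 30 °C) was followed by selection of diploids and sequencing of their barcodes. A regression on co-assayed BCL2-family reference pairs converts the normalised counts of each replicate to an apparent Kd. Each pool was mated in three replicate cultures.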

Parent: Ab-14, a human scFv built as VH, three GGGGS repeats, VL. Only the CDRs of the heavy chain vary.
VH: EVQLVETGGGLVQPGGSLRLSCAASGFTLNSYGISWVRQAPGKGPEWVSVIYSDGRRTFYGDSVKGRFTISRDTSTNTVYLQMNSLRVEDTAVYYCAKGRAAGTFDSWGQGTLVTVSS
VL: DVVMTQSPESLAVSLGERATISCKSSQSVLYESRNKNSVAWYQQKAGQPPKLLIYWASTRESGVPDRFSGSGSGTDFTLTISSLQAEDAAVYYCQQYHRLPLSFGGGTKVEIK

Substitutions are numbered in sequence along the VH above, starting at 1 (not Kabat).
This list gathers variants with a substitution at F59 (VH, numbered from residue 1).
Values are log10 of the apparent Kd in nM; lower means stronger binding.
Replicates are averaged; those with no signal do not enter the mean.
Where no diploid with the target was found in any replicate, the entry reads "nd": below detection, most likely a poor binder, though not proof of it.

- S31L/S35H/F59A: 0.76 (3 of 3 replicates; controls 2 of 9)
- T58H/F59N/Y60S: nd (0 of 3 replicates; controls 3 of 9)
- F59Q/Y60L/R100A: nd (0 of 3 replicates; controls 0 of 9)
- G55E/F59A/D62W: nd (0 of 3 replicates; controls 0 of 9)
- F59R: 3.17 (3 of 3 replicates; controls 3 of 9)
- F59Y/S63M: 2.51 (3 of 3 replicates; controls 1 of 9)
- F27S/Y52M/F59Q: nd (0 of 3 replicates; controls 3 of 9)
- F27L/F59M/V64Y: 4.47 (2 of 3 replicates; controls 2 of 9)
- R56C/F59P: nd (0 of 3 replicates; controls 1 of 9)
- N30Y/F59K/R100E: 3.47 (2 of 3 replicates; controls 0 of 9)
- D54M/F59W/G103C: 3.10 (1 of 3 replicates; controls 1 of 9)
- L29E/R56E/F59S: nd (0 of 3 replicates; controls 0 of 9)
- S35F/F59Q/K65Q: nd (0 of 3 replicates; controls 0 of 9)
- F59K/R100G: 3.68 (3 of 3 replicates; controls 2 of 9)
- F59K/S63H/D106W: nd (0 of 3 replicates; controls 1 of 9)
- T58I/F59C: nd (0 of 3 replicates; controls 0 of 9)
- F27I/F59C/D106K: nd (0 of 3 replicates; controls 0 of 9)
- R57Q/F59L/D106P: nd (0 of 3 replicates; controls 4 of 9)
- S31W/R56T/F59L: 3.76 (1 of 3 replicates; controls 1 of 9)
- L29A/F59S/A101G: 2.89 (3 of 3 replicates; controls 2 of 9)
- F59R/G99L/G103C: nd (0 of 3 replicates; controls 0 of 9)
- T58Q/F59R/V64G: nd (0 of 3 replicates; controls 1 of 9)
- S31E/F59Q/D106V: 0.04 (3 of 3 replicates; controls 2 of 9)
- R56D/F59N/S63K: 2.51 (3 of 3 replicates; controls 0 of 9)
- Y52M/F59K/Y60S: nd (0 of 3 replicates; controls 0 of 9)
- F59Y: 1.43 (3 of 3 replicates; controls 4 of 9)
- F59I/G61P/A101P: nd (0 of 3 replicates; controls 0 of 9)
- T28W/F59G/S107D: 1.87 (3 of 3 replicates; controls 1 of 9)
- S53P/F59G: 2.62 (3 of 3 replicates; controls 1 of 9)
- L29R/I34T/F59P: 4.24 (3 of 3 replicates; controls 4 of 9)
- F59C/V64K/A102H: nd (0 of 3 replicates; controls 0 of 9)
- S53T/F59L/G61Y: nd (0 of 3 replicates; controls 2 of 9)
- V50T/F59W/F105R: 3.25 (1 of 3 replicates; controls 1 of 9)
- R57T/F59D/S63E: nd (0 of 3 replicates; controls 0 of 9)
- F27N/F59T: nd (0 of 3 replicates; controls 0 of 9)
- G33F/F59Q/V64Y: 1.82 (1 of 3 replicates; controls 0 of 9)
- S31Y/F59K/G103Q: nd (0 of 3 replicates; controls 0 of 9)
- F59T/V64A/G99W: nd (0 of 3 replicates; controls 1 of 9)
- V50F/F59N/G103N: 3.65 (1 of 3 replicates; controls 2 of 9)

Excerpt, the first 3 entries:

| changes | log10 Kd (nM), mean | seen in | signal with controls |
|---|---|---|---|
| S31L/S35H/F59A | 0.76 | 3 of 3 | 2 of 9 |
| T58H/F59N/Y60S | nd | 0 of 3 | 3 of 9 |
| F59Q/Y60L/R100A | nd | 0 of 3 | 0 of 9 |

In this assay the parent's reference entry averaged 0.65; its copy inside this library read 4.11 (one replicate of three).
Nonspecific signal, from three strains lacking the peptide, appeared in 15% of pairings of library AAYL49, centred on 4.06 (5% of these signals below 2.83); values are not corrected for it. The control count says in how many pairings with the empty strains this scFv gave a signal.

From the AlphaSeq antibody data of Engelhart et al. 2022 (doi:10.1038/s41597-022-01779-4), copy in the FLAb collection.